ChEMBL document CHEMBL5126531, “NAE modulators: A potential therapy for gastric carcinoma” (Eur J Med Chem, 2022)

Target: Carbonic anhydrase 2 (Homo sapiens, UniProt P00918)
Test: Inhibition of human erythrocyte carbonic anhydrase 2 using 4-Nitrophenyl acetate as substrate preincubated for 15 mins followed by substrate addition and measured after 30 mins by spectrophotometry
Type: cell-based

With `CCOc1cccc(F)c1C#Cc1cn([C@@H]2O[C@H](CNS(N)(=O)=O)[C@@H](O)[C@H]2O)c2ncnc(N)c12` the IC50 was 730 nM.
